## Ab-14 light chain CDR variants: yeast mating affinities

Binding partner: SARS-CoV-2 spike HR2 peptide, sequence PDVDLGDISGINAS.

Ab-14 is the parent antibody, in scFv form: VH, then a (GGGGS)3 linker, then VL. The heavy chain is unchanged in all variants.
VH: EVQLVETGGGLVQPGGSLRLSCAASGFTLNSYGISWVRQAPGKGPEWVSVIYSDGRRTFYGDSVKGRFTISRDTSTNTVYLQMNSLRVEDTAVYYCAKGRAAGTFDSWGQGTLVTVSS
VL: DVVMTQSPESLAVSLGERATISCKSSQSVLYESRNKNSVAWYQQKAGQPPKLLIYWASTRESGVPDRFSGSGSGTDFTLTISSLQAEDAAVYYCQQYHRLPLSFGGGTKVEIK

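Phage display of a naive human antibody library on the peptide gave the parent. Designed CDR sequences, proposed from the first random library and measured here. Several design methods are mixed in this list. The scFvs were displayed on barcoded MATa yeast, the peptide on MATalpha yeast. Mating (16 h, 30 °C) was followed by selection of diploids and sequencing of their barcodes. A regression on co-assayed BCL2-family reference pairs converts the normalised counts of each replicate to an apparent Kd. There are six technical replicates.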

Positions count from residue 1 of the parent VL; Y31M puts M in place of Y. Variants here have at most six changes. Values are log10 of the apparent Kd in nM; lower means stronger binding. Averages over replicates are reported, and they cover detected replicates only. "ND" marks a missing value. The strain was present, yet no cells mated with the target were sequenced in that replicate, which points to weak or no binding. Background: pairings of all light chain designs with three empty control strains gave a value in 4% of cases (median 2.64, 5th percentile 1.59). Values in that range, when seen in few replicates, are hard to tell from nonspecific mating. The authors averaged sequences with at least three values out of six and counted those with two or fewer as poor binders. A sequence measured in both rounds can read differently, since the two assays cover different ranges.

For Y31M N37H Q96L, the assay gave ND, ND, ND, ND, ND, ND. The variant R34W W56Y Q95L gave ND, ND, ND, ND, ND, ND. The variant W56H L102E showed ND, ND, ND, ND, ND, ND. For S25E V29W W56G T59Q, the assay gave 0.72, 0.64, 0.62, 0.49, 0.88, 0.67 (mean 0.67). The variant V29L R34N S58D gave 0.63, 0.54, 0.48, 0.54, 0.48, 0.61 (mean 0.55). The variant K24H S25L Q27P W56N S103N showed 0.88, 0.44, 0.77, 0.63, 0.67, 0.89 (mean 0.71). With S25F N35T W56N S58V S62E the result was -0.01, -0.17, -0.07, -0.18, -0.26, -0.19 (mean -0.15).

The variant S25L K36Q W56E showed -0.59, -0.65, -0.67, -0.64, -0.79, -0.52 (mean -0.64). The variant S25F S33G W56N showed 0.34, 0.22, 0.12, 0.15, 0.13, 0.19 (mean 0.19). With S25V V29Y W56G the result was 0.05, -0.13, -0.15, -0.21, -0.09, -0.06 (mean -0.10). The variant S26L S28K V29W W56H S62Q gave 1.14, 2.28, 1.31, 1.78, 1.95, 1.95 (mean 1.73). With S25L S33Q S38N W56Q the result was -0.46, -0.65, -0.56, -0.70, -0.68, -0.54 (mean -0.60). For S25L S26Q L30G W56E, the assay gave 0.09, 0.15, 0.17, -0.20, -0.01, -0.09 (mean 0.02). The variant S25M Y31M S33H W56E T59L gave 0.21, 0.39, -0.21, -0.08, -0.16, 0.18 (mean 0.06).

For K24S Q27Y S38N W56F Q96S, the assay gave 2.27, ND, ND, 3.40, 1.93, ND (mean 2.53). The variant S25L S28G V29N W56N showed 0.09, -0.11, -0.19, -0.24, -0.24, -0.03 (mean -0.12). For S25V S26Q V29W W56N T59L, the assay gave 0.28, 0.08, -0.27, -0.24, -0.14, 0.04 (mean -0.04). The variant Y31D E32T S33G K36R showed 1.07, 1.09, 0.77, 0.78, 0.81, 1.36 (mean 0.98). For L30R W56N E61L, the assay gave 1.79, 2.06, 1.72, 2.19, 1.87, 3.15 (mean 2.13). For S26D Y31M N35Q K36T, the assay gave 2.60, 2.26, 1.94, 2.77, 1.56, ND (mean 2.22). The variant K24I S25V V29M Y31I W56N S62H gave 0.11, 0.06, -0.07, -0.08, -0.03, -0.01 (mean 0.00).

The variant L30D Y31M R34E W56D gave 0.00, -0.09, -0.18, -0.08, -0.20, 0.06 (mean -0.08). The variant S25V V29D W56E S62Q gave -0.20, -0.29, -0.24, -0.35, -0.12, -0.25 (mean -0.24). The variant S28I W56K gave 0.83, 1.51, 1.06, 1.43, 1.38, 1.18 (mean 1.23). For S25L V29W W56N E61M S62Q, the assay gave 0.59, 0.78, 0.47, 0.33, 0.47, 0.94 (mean 0.60). For S25L V29G W56N E61L, the assay gave 0.34, -0.08, -0.03, 0.08, -0.01, 0.27 (mean 0.10). The variant S25L W56N E61M S62Q Q96D showed 0.04, -0.22, -0.15, -0.23, -0.08, -0.20 (mean -0.14). The variant S25R Q27K Y31H W56R A57L E61F showed ND, ND, ND, ND, ND, ND.

With Q27G R34N W56G E61Q the result was 0.66, 0.32, 0.50, 0.72, 0.40, 0.56 (mean 0.53). The variant Y31R E32P H98E showed ND, ND, ND, ND, ND, ND. The variant S25L L30Q W56S gave 0.11, 0.08, -0.12, -0.20, 0.11, 0.21 (mean 0.03). With Q27G R34N W56G A57D S103G the result was ND, ND, ND, ND, ND, ND.

Top 5 of the variants detected in all replicates, tightest first:

The variant S25L K36Q W56E gave -0.59, -0.65, -0.67, -0.64, -0.79, -0.52 (mean -0.64).
The variant S25L S33Q S38N W56Q gave -0.46, -0.65, -0.56, -0.70, -0.68, -0.54 (mean -0.60).
The variant S25V V29D W56E S62Q gave -0.20, -0.29, -0.24, -0.35, -0.12, -0.25 (mean -0.24).
The variant S25F N35T W56N S58V S62E gave -0.01, -0.17, -0.07, -0.18, -0.26, -0.19 (mean -0.15).
The variant S25L W56N E61M S62Q Q96D gave 0.04, -0.22, -0.15, -0.23, -0.08, -0.20 (mean -0.14).

Source: Li et al. 2023 (doi:10.1038/s41467-023-39022-2), MIT Lincoln Laboratory and A-Alpha Bio; data file from the FLAb repository.